Here are results for one molecule from article PMC4806471, “Oral proteasome inhibitor with strong preclinical efficacy in myeloma models” (BMC Cancer, 2016).

The chains behind the UniProt entries cited, without tags or fusion partners. Where a name states a change or a piece, a line headed by the entry shows the natural chain unless it says otherwise.
UniProt P28074: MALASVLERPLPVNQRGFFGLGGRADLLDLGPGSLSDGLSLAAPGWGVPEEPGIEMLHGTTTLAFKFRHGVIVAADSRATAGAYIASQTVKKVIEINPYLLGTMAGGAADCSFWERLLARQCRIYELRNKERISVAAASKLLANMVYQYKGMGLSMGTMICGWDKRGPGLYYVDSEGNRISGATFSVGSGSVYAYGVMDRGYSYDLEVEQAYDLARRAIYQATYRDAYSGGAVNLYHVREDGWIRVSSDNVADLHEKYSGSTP

The experiment deals with T1, 20S proteasome CT-L, β5 (Homo sapiens, UniProt P28074).
T1 construct: endogenous in cells; host or cells: RPMI8226 (human multiple myeloma)
Put plainly: In vitro 20S proteasome inhibition in RPMI8226 cell lysate, Suc-Leu-Leu-Val-Tyr-AMC substrate. The class given is biochemical. As to conditions: RPMI8226 cellular lysates, 1 h at 37 °C. The procedure:
Pomalidomide was purchased from Tokyo Chemical Industry.
RPMI8226 cell lysate was used for the in vitro proteasome inhibition assay. Cells were washed with PBS and resuspended in 20 mM Tris–HCl, pH 7.5. Then, cells were lysed on ice by dounce homogenization and the supernatants were collected by centrifugation. The assay was conducted in 96-well plates by incubating 2 μg of lysates with serial dilutions of a test compound and 20 μM of substrate at 37 °C for 1 h. After incubation, production of hydrolyzed AMC groups was measured using a FlexStation II Fluorometer (Molecular Devices) or using a Spectra MAX Gemini Fluorometer (Molecular Devices) with an excitation filter of 380 nm and an emission filter of 460 nm.

Molecules are shown by their SMILES.

On to `CC(C)C[C@H](NC(=O)CNC(=O)c1cc(Cl)ccc1Cl)B(O)O` [Ixazomib], for which the half-maximal inhibitory concentration (IC50) was in the range of 3 to 5 nM.

What is called IC50 is the concentration that gives 50% inhibition. A lower IC50 goes with inhibition by little substance.
